{
  "source": "patent US12465609B2",
  "about": "“Methods of treating patients suffering from a disease condition or disorder that is associated with an increased glutamate level” (veriNOS operations GmbH, priority 2022, dated 2025)",
  "origin": "cited, not measured here",
  "test_system": "human platelets",
  "conditions": "cited from earlier work",
  "data": [
    {"smiles": "CN[C@H]1CC[C@@H](c2ccc(Cl)c(Cl)c2)c2ccccc21", "note": "[Sertraline]", "values": [
      {"measurement": "platelet glutamate uptake", "value": "dose dependently reduces"}
    ]}
  ]
}
